From patent US12139488B2, “Pyrido[3,2-d]pyrimidine compounds uses thereof for treating a proliferative disease” (Universite de Montreal, priority 2021, dated 2024)

What was measured:
SW620 cells (KRAS-G12V) = assay: Proliferation inhibition (CellTiter-Glo), SW620; settings: read-out: SW620 Prolif. EC50; SW620, 3 days
Method: (§1) All cancer cell lines (A375, A101D, A2058, RKO, HT29 SK-MEL 30, IPC298, HepG2, HCT-116, Lovo, SWV620, SW480, NCI-H358, NCI-H2122, Calu-6, NCIH2087, NCIH1755, NCIH1666 and Mewo) were obtained from ATCC and cultured in RPMI-1640 medium (Gibco) supplemented with 5% heat inactivated fetal bovine serum (FBS, Wisent) at 37° C. under 5% CO2. Cells were maintained in T175 flasks (Greiner). They were passaged by removing the culture medium, washing once in 10 mL of room temperature Phosphate Buffered Saline (PBS; Wisent) and incubating at 37° C. with 2 mL of 0.05% Trypsin (Thermo-Fisher). Trypsin was then inactivated by adding complete growth medium and the cells were then replated in a T175 culture dish at the appropriate dilution. All cell lines were routinely tested for mycoplasma contamination. Tissue type and mutational status of each cell line can be found in Table B.
(§2) CellTiter-Glo® viability analysis was conducted on cells plated in 100 μL of complete RPMI-1640 growth medium in 96-well flat-bottomed white opaque plates (Greiner or Croning) at a density indicated in Table E (for each CCL, number of cells plated per well of a 96-well plate to perform the CellTiter-Glo® cell viability assay). The cell density in cells/cm^2 would correspond to cell number divided by the area of one well of a 96-well plate (0.32 cm^2). Cells were maintained overnight at 37° C. under 5% CO2 before treatment with compounds' dilution series for 3 days.
(§3) In a dilution series 100 μL/well of test substance dilution prepared in complete RPMI-1640 growth media was added to the cells plated initially in 100 μL of growth media. The dilution series is selected so that ten concentrations cover a range from 10 μM to 0.33 nM. If necessary (as in the case of A375 cells, which were more sensitive to the compounds) the initial concentration of 10 μM is lowered to 1 μM and further dilution is carried out accordingly. The final concentration of DMSO in the assay is set at is 0.5%.
(§4) After 3 days of incubation, the growth media were removed by aspiration and 60 μL of diluted CellTiter-Glo® reagent (10 μL CellTiter-Glo® reagent+50 μL of PBS) was added to each well. Cells were allowed to lyse and to equilibrate in CellTiter-Glo® reagent by 5 min incubation on a plate shaker followed by 10 min incubation at room temperature. Luminescence signals were then acquired on a Synergy Neo2 plate reader (Biotek).
(§5) The effect of each compound dilution on the proliferation of cancer cell lines was expressed in % inhibition and calculated as follows. An internal 100% inhibition control (1 μM of trametinib; cat #HY-10999; MedChem Express; CAS #871700-17-3) was included in each plate and used as a measure of CellTiter-Glo® signal background. The value obtained for trametinib was subtracted from each data point. The average of DMSO (vehicle) controls (set as 0% inhibition) was established and used to calculate % inhibition: % inhibition=100*(1−((CellTiter-Glo® signalcompound)/(CellTiter-Glo® signalDMSO)))
(§6) The ability of each compound to inhibit proliferation was expressed as a EC50 value obtained by plotting the effect values for each data point of a dilution series and fitting the obtained curves using a log(agonist) versus response-variable slope (four parameters) function using GraphPadPrism (V7.0) or Dotmatics Screening Ultra platform.

[1] = tested on: pERK in Calu-6 cells (KRAS Q61K); assay: Phospho-ERK inhibition (AlphaLISA), Calu-6; settings: for Calu6 pERK % Ymin: Calu6, value in parentheses; for IC50: read-out: Calu6 pERK IC50, Calu6
Method: as §1
(§7) AlphaLISA® SureFire® Ultra™ p-ERK 1/2 (Thr202/Tyr204) analysis was conducted on cells plated in 100 μL of complete RPMI-1640 growth medium in 96-well flat-bottomed transparent dishes (Costar) at a density indicated in Table C. Cells were maintained overnight at 37° C. under 5% CO2 before treatment with compounds' dilution series for one hour. The cell density in cells/cm^2 corresponds to cell number divided by the area of one well of a 96-well plate ([…]).
(§8) In a dilution series 100 μL/well of test substance dilution prepared in complete RPMI-1640 growth media was added to the cells. The dilution series is selected so that ten concentrations cover a range from 10 μM to 0.33 nM. If necessary the initial concentration of 10 μM is increased to 100 μM or lowered to 1 μM (as in the case of A375 and H1666 cells, which are generally more sensitive to the compounds) and further dilution is carried out accordingly. The final concentration of DMSO in the assay is set at 0.5%.
(§9) After treatment, media was removed and cells were lysed in 50 μL of 1× AlphaScreen Ultra Lysis Buffer (Perkin Elmer). The AlphaLISA® SureFire® Ultra™ p-ERK 1/2 (Thr202/Tyr2O4) (PerkinElmer) reactions were performed with 5 μL of cell lysate according to the manufacturer's specifications in 384-well proxyplates (Perkin Elmer) followed by overnight incubation of the reactions at room temperature in a humidified chamber. After completion of the reactions, the signals were recorded on an EnVision plate reader (Perkin Elmer) using built in AlphaLISA® settings.
(§10) The effect of each compound dilution on the pERK signal was expressed in % inhibition and calculated as follows. An internal 100% inhibition control ([…] trametinib, cat #HY-10999; MedChem Express; CAS #871700-17-3) was included in each plate and used as a measure of pERK background. First, the value obtained for trametinib was subtracted from each data point. The average of DMSO (vehicle) controls (set as 0% inhibition) was established and used to calculate % inhibition: % inhibition=100*(1-((pERK signalcompound)/(pERK signalDMSO)))
as §6, with “pERK signal” for “proliferation”, “an IC50” for “a EC50”, “inhibition” for “effect”
(§11) When present, paradoxical pERK induction is inferred from the negative % inhibition values observed in the pERK IC50 curves of a compound.

IPC298 cells (NRAS-Q61L) = assay: Proliferation inhibition (CellTiter-Glo), IPC298; settings: read-out: IPC298 Prolif. EC50; IPC298, 3 days
Method: as §1, §2, §3, §4, §5, §6

[2] = tested on: SK-MEL30 cells (NRAS-Q61K); assay: Proliferation inhibition (CellTiter-Glo), SK-MEL30; settings: read-out: SK-MEL30 Prolif. EC50; SK-MEL30, 3 days
Method: as §1, §2, §3, §4, §5, §6

[3] = tested on: pERK in SW620 cells (KRAS-G12V); assay: Phospho-ERK inhibition (AlphaLISA), SW620; settings: for SW620 pERK % Ymin: SW620, value in parentheses; for IC50: read-out: SW620 pERK IC50, SW620
Method: as §1, §7, §8, §9, §10
as §6, with “pERK signal” for “proliferation”, “an IC50” for “a EC50”, “inhibition” for “effect”
as §11

[4] = tested on: NCI-H358 cells (KRAS-G12C); assay: Proliferation inhibition (CellTiter-Glo), NCI-H358; settings: read-out: NCI-H358 Prolif. EC50; NCI-H358, 3 days
Method: as §1, §2, §3, §4, §5, §6

Row | EC50 (SW620 cells (KRAS-G12V)) [nM] | IC50 [1] [nM] | EC50 [2] [nM] | IC50 [3] [nM] | EC50 [4] [nM] | Compound | Calu6 pERK % Ymin [1] [%] | EC50 (IPC298 cells (NRAS-Q61L)) [nM] | SW620 pERK % Ymin [3] [%]
1 | 300 to 3000 | 30 to 300 | < 30 | 30 to 300 | < 30 | O=S(=O)(CCCN1CCOCC1)c1cn(-c2ccc3ncnc(Nc4c(F)ccc(NS(=O)(=O)c5cccc(Cl)c5Cl)c4F)c3n2)c2ccccc12 | 4 | < 30 | −12
2 | < 30 | – | < 30 | – | < 30 | Cc1c(F)cccc1S(=O)(=O)Nc1ccc(F)c(Nc2ncnc3ccc(-n4nc(C(=O)N(C)Cc5cccnc5)c5ccccc54)nc23)c1F | – | < 30 | –
3 | < 30 | < 30 | < 30 | 30 to 300 | < 30 | CS(=O)(=O)C1CCN(c2cccc3c2nnn3-c2ccc3ncnc(Nc4c(F)ccc(NS(=O)(=O)c5cccc(Cl)c5Cl)c4F)c3n2)CC1 | −7 | < 30 | 6
4 | < 30 | 30 to 300 | < 30 | 30 to 300 | < 30 | COc1ccc(S(=O)(=O)Nc2ccc(F)c(Nc3ncnc4ccc(-n5cc(S(=O)(=O)N(C)CCN(C)C)c6ccccc65)nc34)c2F)c(C)c1F | −7 | < 30 | −18
5 | 300 to 3000 | < 30 | < 30 | 30 to 300 | < 30 | CN(CCN1CCOCC1)S(=O)(=O)c1cn(-c2ccc3ncnc(Nc4c(F)ccc(NS(=O)(=O)c5cccc(Cl)c5Cl)c4F)c3n2)c2ccccc12 | 10 | < 30 | −12
6 | 300 to 3000 | 30 to 300 | < 30 | 30 to 300 | 300 to 3000 | Cc1c(Cl)cccc1S(=O)(=O)Nc1ccc(F)c(Nc2ncnc3ccc(-n4cnc5c(N)cccc54)nc23)c1F | 6 | < 30 | −6
7 | 300 to 3000 | 30 to 300 | < 30 | 30 to 300 | < 30 | O=S(=O)(Nc1ccc(F)c(Nc2ncnc3ccc(-n4cnc5c(N6CCC7(CCCC7)CC6)cccc54)nc23)c1F)c1cccc(Cl)c1Cl | −18 | < 30 | 3
8 | 300 to 3000 | 30 to 300 | < 30 | 30 to 300 | < 30 | O=S(=O)(Nc1ccc(F)c(Nc2ncnc3ccc(-n4nnc5ccccc54)nc23)c1F)c1cccc(Cl)c1Cl | −6 | < 30 | 4
9 | > 3000 | 30 to 300 | < 30 | 30 to 300 | < 30 | COCCOc1cccc2c1nnn2-c1ccc2ncnc(Nc3c(F)ccc(NS(=O)(=O)c4cccc(Cl)c4Cl)c3F)c2n1 | −11 | < 30 | 29
10 | 300 to 3000 | 30 to 300 | < 30 | 30 to 300 | < 30 | Cc1c(Cl)csc1S(=O)(=O)Nc1ccc(F)c(Nc2ncnc3ccc(-n4cc(S(=O)(=O)N(C)CCN(C)C)c5ccccc54)nc23)c1F | 6 | < 30 | −5
11 | < 30 | 30 to 300 | < 30 | 30 to 300 | < 30 | CCC1(O)CCN(c2cccc3c2ncn3-c2ccc3ncnc(Nc4c(F)ccc(NS(=O)(=O)c5cccc(Cl)c5Cl)c4F)c3n2)CC1 | −5 | < 30 | −4
12 | 300 to 3000 | 30 to 300 | < 30 | 30 to 300 | < 30 | Cc1c(F)cccc1S(=O)(=O)Nc1ccc(F)c(Nc2ncnc3ccc(-n4cnc5c(-c6cccnc6)cccc54)nc23)c1F | 3 | < 30 | −12
13 | < 30 | 30 to 300 | < 30 | 30 to 300 | < 30 | O=S(=O)(Nc1ccc(F)c(Nc2ncnc3ccc(-n4cnc5c(N6CCC(O)(C(F)(F)F)CC6)cccc54)nc23)c1F)c1cccc(Cl)c1Cl | 1 | < 30 | −13
14 | < 30 | 30 to 300 | < 30 | 30 to 300 | 300 to 3000 | Cc1c(Cl)cccc1S(=O)(=O)Nc1ccc(F)c(Nc2ncnc3ccc(-n4cc(C(=O)N5CCN(C)CC5)c5ccccc54)nc23)c1F | 6 | < 30 | 3
